{"source": "patent US20140171436A1", "about": "“TREATMENT OF ANTIFOLATE NEUROTOXICITY” (Syntrix Biosystems, Inc., priority 2003, published 2014)", "origin": "cited, not measured here", "target": "NMDA receptor", "settings": "read-out: Ki NMDAR; cited from earlier work"}
{"smiles": "COc1ccc2c(c1)[C@@]13CCCC[C@H]1[C@@H](C2)N(C)CC3", "note": "[dextromethorphan, (+)-3-methoxy-N-methylmorphinan]", "values": [{"measurement": "Ki", "result": 7, "unit": "µM"}]}
